Measurements: publication PMC3257419 (Journal of Medicinal Chemistry, 2011)

Columns and labels:
[1] = tested on: Wistar albino rats; conditions: CPP-115 20 mg/kg vs 0.5-1 mg/kg; vigabatrin 200 mg/kg vs 100-300 mg/kg
[2] = tested on: Wistar albino rats; conditions: determined empirically from previously published results; cited from earlier work

C=CC(N)CCC(=O)O (centres unmarked) [Vigabatrin, vigabatrin]
safety factor of retinal toxicity dose over the treatment dose [1]: about 1 fold
maximum tolerated dose (MTD) [2]: 200 mg/kg
